Measured values: US20190008870A1 (published 2019)

Test system: HMG CoA reductase
Assay: HMG CoA reductase expression in HepG2 cells (Western blotting)
Format: cell-based
Settings: 24 hours, CTL 100

CCC(C)(C)C(=O)O[C@H]1C[C@@H](C)C=C2C=C[C@H](C)[C@H](CC[C@@H]3C[C@@H](O)CC(=O)O3)[C@H]21 [Simva, Simvastatin, reference compound]
HMGR (%) (10^−6 M): 225% | HMGR (%) (10^−7 M): 220%
